In patent US8969612B2, “Low interfacial tension surfactants for petroleum applications” (Soane Energy, LLC, priority 2009, dated 2015):

Assay: Interfacial tension, Du Nouys ring tensiometer (Example 14), interface with toluene
Assay type: physicochemical
Conditions: 1% by weight solution, neutral pH (5 M NaOH)
Description: Surfactant molecules were tested for their ability to decrease the surface tension across the aqueous-organic interface.

- IFT w/Toluene: <0.01 b mN/m
Substance: 2-(nonen-1-yl)succinic acid mono (2-cyclohexylethyl) ester [Example 3]
